Earlier results as cited in patent US20210087232A1, “D-ENANTIOMERIC PEPTIDES FOR ANTI-INFLAMMATORY TREATMENT OF AMYOTROPIC LATERAL SCLEROSIS (ALS) AND OTHER DISEASES DRIVEN BY NEURO-INFLAMMATION” (FORSCHUNGSZENTRUM JUELICH GMBH, priority 2018, published 2021).

System: ALS patients
Settings: cited from earlier work

## Nc1nc2ccc(OC(F)(F)F)cc2s1 [riluzole]
  survival time of patients: prolonging the survival time of patients by a few months
